In article PMC5923123, “In Vitro and In Vivo Efficacy of a Novel and Long-Acting Fungicidal Azole, PC1244, on Aspergillus fumigatus Infection” (Antimicrobial Agents and Chemotherapy, 2018) one finds Kd data, which are given here for one compound.

The chains behind the UniProt entries cited, without tags or fusion partners. Where a name states a change or a piece, a line headed by the entry shows the natural chain unless it says otherwise.
UniProt Q4WNT5: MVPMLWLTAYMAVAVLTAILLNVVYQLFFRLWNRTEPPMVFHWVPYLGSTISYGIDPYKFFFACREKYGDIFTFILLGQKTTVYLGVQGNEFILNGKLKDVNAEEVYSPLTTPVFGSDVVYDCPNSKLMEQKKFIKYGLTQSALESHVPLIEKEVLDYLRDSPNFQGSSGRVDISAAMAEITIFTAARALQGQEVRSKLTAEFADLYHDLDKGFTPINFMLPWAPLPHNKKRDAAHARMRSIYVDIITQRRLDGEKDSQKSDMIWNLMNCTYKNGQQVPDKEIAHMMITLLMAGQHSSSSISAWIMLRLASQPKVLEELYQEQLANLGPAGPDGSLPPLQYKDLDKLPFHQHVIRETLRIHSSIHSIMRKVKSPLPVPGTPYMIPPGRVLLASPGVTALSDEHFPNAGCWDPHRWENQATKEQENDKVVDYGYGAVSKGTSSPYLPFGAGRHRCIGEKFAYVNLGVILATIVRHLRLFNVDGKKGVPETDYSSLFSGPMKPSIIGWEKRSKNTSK

The experiment addresses recombinant A. fumigatus (AF293) CYP51A (Aspergillus fumigatus, UniProt Q4WNT5). Description: CYP51 binding assay (type II difference spectra, Morrison equation).

In general, Kd refers to the equilibrium constant for the complex coming apart. As to `Cc1cc(N2CCN(c3ccc(C(=O)N[C@H]4CCCC[C@@H]4O)cc3)CC2)ccc1OC[C@@H]1CO[C@@](Cn2cncn2)(c2ccc(F)cc2F)C1` [PC1244, 4-(4-(4-(((3R,5R)-5-((1H-1,2,4-triazol-1-yl)methyl)-5-(2,4-difluorophenyl)tetrahydrofuran-3-yl)methoxy)-3-methylphenyl)piperazin-1-yl)-N-((1S,2S)-2-hydroxycyclohexyl)benzamide], the Kd came out at 0.74 µM.
